Where two headings read alike, the source gives them in different places.
Target: T1, cPLA2 (Homo sapiens, UniProt P47712)
T1 sequence (P47712 1-749): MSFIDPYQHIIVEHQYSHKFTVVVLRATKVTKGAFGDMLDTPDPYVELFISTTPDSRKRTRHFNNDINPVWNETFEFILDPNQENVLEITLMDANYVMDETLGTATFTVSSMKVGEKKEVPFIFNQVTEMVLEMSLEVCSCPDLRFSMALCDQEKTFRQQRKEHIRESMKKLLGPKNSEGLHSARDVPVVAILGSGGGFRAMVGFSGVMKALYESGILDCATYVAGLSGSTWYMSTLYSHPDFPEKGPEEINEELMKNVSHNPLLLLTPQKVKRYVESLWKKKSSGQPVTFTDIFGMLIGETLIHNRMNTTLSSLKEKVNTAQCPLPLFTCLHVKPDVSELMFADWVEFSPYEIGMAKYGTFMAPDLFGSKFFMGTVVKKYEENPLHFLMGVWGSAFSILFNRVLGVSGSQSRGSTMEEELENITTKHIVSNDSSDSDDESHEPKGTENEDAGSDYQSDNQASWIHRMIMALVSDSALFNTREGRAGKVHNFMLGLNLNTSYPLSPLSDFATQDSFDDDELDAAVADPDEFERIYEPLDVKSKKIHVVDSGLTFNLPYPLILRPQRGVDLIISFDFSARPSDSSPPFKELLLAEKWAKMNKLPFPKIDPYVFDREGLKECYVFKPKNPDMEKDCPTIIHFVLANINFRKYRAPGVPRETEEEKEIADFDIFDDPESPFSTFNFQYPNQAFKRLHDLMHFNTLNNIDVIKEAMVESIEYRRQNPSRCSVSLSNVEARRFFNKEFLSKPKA
Test: Coumarine assay (hydrolysis of 7-hydroxycoumarinyl 6-heptenoate)
Type: biochemical
Details: 60 μM 7-hydroxycoumarinyl 6-heptenoate, pH 7.5

IC50 (Coumarin IC50 (uM)) [µM]	Compound	IC50 (read-out: Coumarin IC50) [µM]
	4-(2-{1-benzhydryl-5-chloro-2-[2-(2-methoxy-phenyl-sulfanylmethanesulfonylamino)-ethyl]-1H-indol-3-yl}-ethoxy)-benzoic acid [Example 83]	0.45
1.3	CC(=O)N1CCN(CCS(=O)(=O)NCCc2c(CCOc3ccc(C(=O)O)cc3)c3cc(Cl)ccc3n2C(c2ccccc2)c2ccccc2)CC1 [Example 242, 4-[2-(2-{2-[2-(4-Acetyl-piperazin-1-yl)-ethanesulfonylamino]-ethyl}-1-benzhydryl-5-chloro-1H-indol-3-yl)-ethoxy]-benzoic acid]	
0.75	CC1CN(CCS(=O)(=O)NCCc2c(CCOc3ccc(C(=O)O)cc3)c3cc(Cl)ccc3n2C(c2ccccc2)c2ccccc2)CC(C)N1 (stereo not shown) [Example 243, 4-[2-(1-Benzhydryl-5-chloro-2-{2-[2-(3,5-dimethyl-piperazin-1-yl)-ethanesulfonylamino]-ethyl}-1H-indol-3-yl)-ethoxy]-benzoic acid]	
0.75	CC1C(=O)NCCN1CCS(=O)(=O)NCCc1c(CCOc2ccc(C(=O)O)cc2)c2cc(Cl)ccc2n1C(c1ccccc1)c1ccccc1 (stereo not shown) [Example 253, 4-(2-{1-benzhydryl-5-chloro-2-[2-({[2-(2-methyl-3-oxopiperazin-1-yl)ethyl]sulfonyl}amino)ethyl]-1H-indol-3-yl}ethoxy)benzoic acid]	

Source: patent publication US7605156B2 (dated 2009)
